Measured values taken from US9868727B2, “Factor XIa inhibitors” (Merck Sharp & Dohme Corp., priority 2014, dated 2018).

Protein sequences, listed by entry. Tags and fused reporters are not part of them. Residues count along the entry.
UniProt P03952, 391-638 limits assumed: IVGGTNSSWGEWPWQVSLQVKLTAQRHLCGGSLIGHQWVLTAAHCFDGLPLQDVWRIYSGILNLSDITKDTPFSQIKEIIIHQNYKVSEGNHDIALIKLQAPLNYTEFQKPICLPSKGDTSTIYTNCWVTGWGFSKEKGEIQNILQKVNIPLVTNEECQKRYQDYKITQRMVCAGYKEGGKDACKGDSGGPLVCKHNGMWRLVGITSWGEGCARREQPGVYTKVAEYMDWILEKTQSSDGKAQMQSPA
UniProt P03952, 20-390 partner limits assumed: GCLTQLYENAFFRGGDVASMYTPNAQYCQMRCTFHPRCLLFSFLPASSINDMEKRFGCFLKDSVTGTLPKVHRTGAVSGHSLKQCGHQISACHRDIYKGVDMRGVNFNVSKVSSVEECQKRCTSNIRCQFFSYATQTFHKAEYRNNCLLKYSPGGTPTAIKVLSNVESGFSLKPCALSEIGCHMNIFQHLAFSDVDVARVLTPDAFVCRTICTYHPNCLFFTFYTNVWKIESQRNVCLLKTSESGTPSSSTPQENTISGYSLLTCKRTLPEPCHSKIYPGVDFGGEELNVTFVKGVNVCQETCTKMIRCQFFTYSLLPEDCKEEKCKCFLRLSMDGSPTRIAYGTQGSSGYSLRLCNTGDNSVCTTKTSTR
UniProt P03951, 388-625 limits assumed: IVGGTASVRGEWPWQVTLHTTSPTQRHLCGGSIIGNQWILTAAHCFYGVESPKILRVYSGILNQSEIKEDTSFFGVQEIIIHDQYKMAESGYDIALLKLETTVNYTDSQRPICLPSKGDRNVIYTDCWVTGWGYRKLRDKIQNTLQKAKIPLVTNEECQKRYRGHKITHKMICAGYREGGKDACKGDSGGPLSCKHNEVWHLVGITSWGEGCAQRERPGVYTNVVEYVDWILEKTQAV
UniProt P03951, 19-387 partner limits assumed: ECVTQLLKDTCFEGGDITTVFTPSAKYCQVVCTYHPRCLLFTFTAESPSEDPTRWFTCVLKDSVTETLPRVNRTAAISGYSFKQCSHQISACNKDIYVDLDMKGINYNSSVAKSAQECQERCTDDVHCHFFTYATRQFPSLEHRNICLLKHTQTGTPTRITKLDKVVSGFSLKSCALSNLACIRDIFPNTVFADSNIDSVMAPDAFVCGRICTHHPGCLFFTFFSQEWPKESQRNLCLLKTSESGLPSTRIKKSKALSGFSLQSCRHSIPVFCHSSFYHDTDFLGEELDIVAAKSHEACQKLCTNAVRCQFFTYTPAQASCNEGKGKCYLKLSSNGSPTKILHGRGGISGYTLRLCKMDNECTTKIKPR

Key:
[1] = target: purified Human plasma kallikrein (Homo sapiens, UniProt P03952); assay: Kallikrein Assay; settings: read-out: PK IC50; Plasma Kallekrein IC50; fluorogenic substrate Acetyl-K-P-R-AFC, 0.5 nM enzyme, pH 7.4
[2] = target: purified human Factor XIa (Homo sapiens, UniProt P03951); assay: Factor XIa Assay; type: biochemical; settings: read-out: F11a IC50, fluorogenic substrate Z-Gly-Pro-Arg-AFC 100 μM, 40 pM enzyme, pH 7.4

IC50 [1] [nM] | Structure (SMILES) | IC50 [2] [nM]
57.2 | COC(=O)c1scc(-c2c[nH]c(C(Cc3ccccc3)c3ccc(-c4cc(Cl)ccc4-n4cnnc4)c[n+]3[O-])n2)c1F (racemic) | 8.25
– | COC(=O)Nc1ccc(-c2ccnc(C(Cc3ccccc3)c3ccc(-c4cc(Cl)ccc4-n4cnnn4)c[n+]3[O-])c2)cc1 (single isomer, unassigned) [Example 81] | 1270
– | COC(=O)Nc1ccc(-c2ccnc(C(Cc3ccccc3)c3ccc(-c4cc(Cl)ccc4-n4cnnn4)c[n+]3[O-])c2)cc1 (single isomer, unassigned) [Example 82] | 125
